This is a selection; strong and weak results do not stand in their true shares. Activity calls are given as the source filed them.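 How the source made its calls: active means inhibition above a per-campaign cutoff: mean of compounds within control limits plus 3 SD (cut at about 15% in these data); inactive means the rest.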
Each compound was assayed against Fibrinogen beta chain (Homo sapiens) (UniProt P02675) (assay: small molecules displacing Tn6 from DD(E) complex – biochemical, fluorescence polarization, human fibrin, Tn6 probe, primary screen (AID 720509;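 further: 0% = median of all compound wells on the plate and 100% = blocking peptide control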)). Details: Fibrin DD(E) TRITC-Tn6 fluorescence polarization displacement; at 8.3 µM; hits give high values.

Protein sequences, listed by entry. Tags and fused reporters are not part of them.
UniProt P02675, whole entry, looked up: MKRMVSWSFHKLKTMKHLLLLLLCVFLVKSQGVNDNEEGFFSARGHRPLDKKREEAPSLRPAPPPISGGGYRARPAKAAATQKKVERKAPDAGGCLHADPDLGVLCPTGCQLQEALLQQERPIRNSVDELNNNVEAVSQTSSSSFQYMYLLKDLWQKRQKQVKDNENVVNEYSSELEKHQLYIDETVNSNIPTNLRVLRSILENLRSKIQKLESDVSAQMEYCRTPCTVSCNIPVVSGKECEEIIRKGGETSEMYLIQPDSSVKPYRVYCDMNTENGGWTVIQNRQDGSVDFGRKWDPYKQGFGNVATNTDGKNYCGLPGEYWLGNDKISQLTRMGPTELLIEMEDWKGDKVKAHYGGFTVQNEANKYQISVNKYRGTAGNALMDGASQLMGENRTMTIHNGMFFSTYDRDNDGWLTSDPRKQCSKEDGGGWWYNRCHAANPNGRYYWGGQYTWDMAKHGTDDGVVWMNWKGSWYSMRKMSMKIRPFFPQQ

**Q.** Which inhibition does the source give for CC(C)c1ccc(OP(C)(=O)Nc2ccc(SC(F)(F)F)cc2)cc1 (stereo not given) here?
**A.** inactive: -0.17%

**Q.** Cc1c([N+](=O)[O-])cc([N+](=O)[O-])c(Br)c1[N+](=O)[O-] was tested. Which inhibition did it give?
**A.** inactive: -2.58%

**Q.** How did the inhibition turn out when CCN(CC)CCCOC(=O)C(O)(c1ccccc1)C1CCCCC1 (stereo not given) was run?
**A.** inactive: 0.79%

**Q.** For CP(=O)(Nc1ccccc1)Oc1ccc(F)cc1 (stereo not given), which inhibition is on record?
**A.** inactive: -3.11%

**Q.** O=[N+]([O-])c1cc([N+](=O)[O-])c(OC2CCCCC2O)c([N+](=O)[O-])c1 (stereo not given) was tested. Which inhibition did it give?
**A.** inactive: -2.54%

**Q.** With CCCCCOc1ccc(NP(C)(=O)Oc2ccc(Cl)cc2Cl)cc1 (stereo not given) as the compound, how does the inhibition read?
**A.** inactive: -10.4%

**Q.** With CCN(CC)CCCNc1ccccc1[N+](=O)[O-].O=[N+]([O-])c1cc([N+](=O)[O-])c(O)c([N+](=O)[O-])c1 as the compound, how does the inhibition read?
**A.** inactive: -1.5%

**Q.** CCOC(=O)c1ccc(NP(C)(=O)Oc2ccc(F)cc2)cc1 (stereo not given) was tested. Which inhibition did it give?
**A.** inactive: -1.71%

**Q.** Which inhibition does the source give for COc1ccc(OP(C)(=O)Nc2ccc(SC(F)(F)F)cc2)cc1 (stereo not given) here?
**A.** inactive: 0.39%

**Q.** How did the inhibition turn out when O=[N+]([O-])c1ccc(OP2(=O)COCCO2)cc1 (stereo not given) was run?
**A.** inactive: -3.05%

**Q.** How did the inhibition turn out when O=[N+]([O-])c1cc([N+](=O)[O-])c(NCC2CCS(=O)(=O)C2)c([N+](=O)[O-])c1 (stereo not given) was run?
**A.** inactive: -8.99%

**Q.** How did the inhibition turn out when Cc1cc(-c2cccc3ccccc23)c(C)cn1.O=[N+]([O-])c1cc([N+](=O)[O-])c(O)c([N+](=O)[O-])c1 was run?
**A.** inactive: -5.06%

**Q.** With Cc1c(C(c2ccc3c(c2)OCO3)c2c(C)n(C)n(-c3ccccc3)c2=O)c(=O)n(-c2ccccc2)n1C.O=[N+]([O-])c1cc([N+](=O)[O-])c(O)c([N+](=O)[O-])c1 as the compound, how does the inhibition read?
**A.** inactive: 1.5%

**Q.** For COc1ccc(OP(C)(=O)Nc2cccc(Br)c2)cc1 (stereo not given), which inhibition is on record?
**A.** inactive: -8.14%

**Q.** CN(C)CCOC(=O)C(O)(c1ccccc1)C1CCCCC1 (stereo not given) was tested. Which inhibition did it give?
**A.** inactive: -7.77%

**Q.** How did the inhibition turn out when COc1ccc(NP(C)(=O)Oc2ccccc2OC)cc1 (stereo not given) was run?
**A.** inactive: 4.06%

**Q.** For CP(=O)(Nc1ccc2c(c1)OCCO2)Oc1ccccc1 (stereo not given), which inhibition is on record?
**A.** inactive: -2.34%

**Q.** Which inhibition does the source give for Cc1ccccc1NP(C)(=O)Nc1ccccc1C here?
**A.** inactive: 2.14%

**Q.** How did the inhibition turn out when O=[N+]([O-])c1cc([N+](=O)[O-])c(C(F)(F)F)c([N+](=O)[O-])c1O was run?
**A.** inactive: -2.18%

**Q.** With CP(=O)(Nc1ccc(SC(F)(F)F)cc1)Oc1ccc(F)cc1 (stereo not given) as the compound, how does the inhibition read?
**A.** inactive: -3.46%

**Q.** CCOP(C)(=S)SCC(=O)NC(C)(CC)C(=O)O (stereo not given) was tested. Which inhibition did it give?
**A.** inactive: 1.79%

**Q.** Which inhibition does the source give for CCOP(=O)(CC)OCC here?
**A.** inactive: -1.21%

**Q.** Which inhibition does the source give for CC(C)(C)c1ccc(OP(C)(=O)O)cc1 here?
**A.** inactive: 2.14%

**Q.** For COc1ccccc1OP(C)(=O)Nc1ccccc1Br (stereo not given), which inhibition is on record?
**A.** inactive: 5.33%

**Q.** With CP(=O)(Nc1ccc(Cl)cc1)Oc1ccc(F)cc1 (stereo not given) as the compound, how does the inhibition read?
**A.** inactive: -0.54%

**Q.** Which inhibition does the source give for CN(C)C(=O)c1c([N+](=O)[O-])cc([N+](=O)[O-])cc1[N+](=O)[O-] here?
**A.** inactive: 8.41%

**Q.** CCN(CC)CC(O)COC(=O)C(O)(c1ccccc1)C1CCCCC1 (stereo not given) was tested. Which inhibition did it give?
**A.** inactive: -3.71%

**Q.** For COc1ccc(OP(C)(=O)Nc2ccc(Br)cc2)cc1 (stereo not given), which inhibition is on record?
**A.** inactive: 2.99%

**Q.** COc1ccccc1OP(C)(=O)Nc1c(C)n(C)n(-c2ccccc2)c1=O (stereo not given) was tested. Which inhibition did it give?
**A.** inactive: 2.9%

**Q.** O=C(OCCCN1CCCC1)C(O)(c1ccccc1)C1CCCCC1 (stereo not given) was tested. Which inhibition did it give?
**A.** inactive: -1.82%

**Q.** Which inhibition does the source give for CP(=O)(Oc1ccccc1)N1CCOC1=O (stereo not given) here?
**A.** inactive: 4.45%

**Q.** How did the inhibition turn out when CCc1ccc(OP(C)(=O)Nc2cccnc2)cc1 (stereo not given) was run?
**A.** inactive: -1.07%

**Q.** Which inhibition does the source give for Nc1ccc2c(ccc3cccnc32)n1.O=[N+]([O-])c1cc([N+](=O)[O-])c(O)c([N+](=O)[O-])c1 here?
**A.** inactive: 5.53%

**Q.** For CCOC(=O)c1ccc(NP(C)(=O)Oc2ccc(Cl)cc2)cc1 (stereo not given), which inhibition is on record?
**A.** inactive: -0.35%

**Q.** How did the inhibition turn out when CP(=O)(OC12CC3CC(CC(C3)C1)C2)OC12CC3CC(CC(C3)C1)C2 was run?
**A.** inactive: 2.68%

**Q.** Which inhibition does the source give for CP(=O)(OCCOc1ccccc1)OCCOc1ccccc1 here?
**A.** inactive: -4.52%

**Q.** Which inhibition does the source give for CP(=O)(Nc1ccc(Cl)cc1Cl)Oc1ccccc1 (stereo not given) here?
**A.** inactive: -4.01%

**Q.** Which inhibition does the source give for CCCCCCCCCCCCCCCC1C[N+](C)(C)CCOP(C)(=O)O1 (stereo not given) here?
**A.** inactive: 0.52%

**Q.** Which inhibition does the source give for O=C1C(O)=C([N+](=O)[O-])C(=O)C(O)=C1[N+](=O)[O-] here?
**A.** inactive: 1.04%

**Q.** Which inhibition does the source give for Cc1cc(C)cc(OP(C)(=O)Nc2cccc(C(F)(F)F)c2)c1 (stereo not given) here?
**A.** inactive: 1.86%

**Q.** COc1ccccc1OP(C)(=O)Nc1ccc(C)c(C)c1 (stereo not given) was tested. Which inhibition did it give?
**A.** inactive: 1.43%

**Q.** How did the inhibition turn out when COc1ccc(OP(C)(=O)Nc2ccccc2Br)cc1 (stereo not given) was run?
**A.** inactive: 0.46%

**Q.** With O=[N+]([O-])c1cc([N+](=O)[O-])c(Nc2ccccn2)c([N+](=O)[O-])c1 as the compound, how does the inhibition read?
**A.** inactive: -5.54%

**Q.** Cc1c(NP(C)(=O)Oc2ccc(C(C)C)cc2)c(=O)n(-c2ccccc2)n1C (stereo not given) was tested. Which inhibition did it give?
**A.** inactive: -9.16%

**Q.** Which inhibition does the source give for CP(=O)(Nc1ccccn1)Oc1ccccc1 (stereo not given) here?
**A.** inactive: -0.04%

**Q.** For COc1ccccc1OP(C)(=O)Nc1ccc(C)cc1C (stereo not given), which inhibition is on record?
**A.** inactive: 11%

**Q.** CCc1ccc(OP(C)(=O)O)cc1 was tested. Which inhibition did it give?
**A.** inactive: 6.76%

**Q.** With COc1ccccc1OP(C)(=O)Nc1ccc(Br)cc1 (stereo not given) as the compound, how does the inhibition read?
**A.** inactive: 5.23%

**Q.** COc1ccc(OP(C)(=O)Nc2ccccn2)cc1 (stereo not given) was tested. Which inhibition did it give?
**A.** inactive: 0.85%

**Q.** Which inhibition does the source give for CN(C)CCOC(=O)C(O)(c1ccccc1)C1CCCC1 (stereo not given) here?
**A.** inactive: 5.52%

Reference: PubChem BioAssay AID720509 (The Scripps Research Institute Molecular Screening Center, 2013)
